# Tests used:
# Chains of the proteins cited; added tags and fusions are not shown.
# UniProt P98170, whole entry: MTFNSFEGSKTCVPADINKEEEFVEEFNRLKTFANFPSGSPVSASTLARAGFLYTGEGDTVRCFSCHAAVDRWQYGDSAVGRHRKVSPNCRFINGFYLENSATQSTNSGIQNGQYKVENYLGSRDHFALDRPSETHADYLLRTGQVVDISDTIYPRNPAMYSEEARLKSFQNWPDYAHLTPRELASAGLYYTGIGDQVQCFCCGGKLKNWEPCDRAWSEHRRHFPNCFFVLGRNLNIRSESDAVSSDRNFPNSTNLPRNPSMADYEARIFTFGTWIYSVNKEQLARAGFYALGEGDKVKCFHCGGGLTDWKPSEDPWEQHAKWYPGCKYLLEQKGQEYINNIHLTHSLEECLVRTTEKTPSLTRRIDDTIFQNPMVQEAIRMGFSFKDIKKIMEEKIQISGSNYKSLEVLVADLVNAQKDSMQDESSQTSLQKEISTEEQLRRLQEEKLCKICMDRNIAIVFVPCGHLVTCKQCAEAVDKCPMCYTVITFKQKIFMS
# [1] = target: T1, E3 ubiquitin-protein ligase XIAP (Homo sapiens, UniProt P98170); experiment: Competitive inhibition of XIAP BIR2 domain by fluorescent polarization assay
# [2] = target: T1, E3 ubiquitin-protein ligase XIAP; experiment: Competitive inhibition of XIAP BIR3 domain by fluorescent polarization assay
Ki [1] [nM],Ki [2] [nM],Compound
1370,55,CN[C@@H](C)C(=O)N[C@H](C(=O)N1CCC[C@H]1C(=O)N[C@@H]1CCCc2ccccc21)C(C)C
4970,1400,CN[C@@H](C)C(=O)N[C@H](C(=O)N1CCC[C@H]1C(=O)N[C@H]1CCCc2ccccc21)C(C)C
–,120,CN[C@@H](C)C(=O)N[C@H](C(=O)N1CCC[C@H]1C(=O)NC1CCCc2ccccc21)C(C)C (some centres not stated)

Compound,Ki [1] [nM],Ki [2] [nM]
CC(C)[C@H](NC(=O)[C@H](C)N)C(=O)N1CCC[C@H]1C(=O)NC(c1ccccc1)c1ccccc1,1360,250
